## Ab-91 heavy chain CDR variants: yeast mating affinities

Target peptide (SARS-CoV-2 spike, HR2 region): PDVDLGDISGINAS

Ab-91 is the parent antibody, in scFv form: VL, then a (GGGGS)3 linker, then VH. The light chain is unchanged in all variants.
VL: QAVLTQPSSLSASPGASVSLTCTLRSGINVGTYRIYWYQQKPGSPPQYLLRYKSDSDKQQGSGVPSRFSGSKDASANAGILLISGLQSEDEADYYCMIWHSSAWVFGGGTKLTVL
VH: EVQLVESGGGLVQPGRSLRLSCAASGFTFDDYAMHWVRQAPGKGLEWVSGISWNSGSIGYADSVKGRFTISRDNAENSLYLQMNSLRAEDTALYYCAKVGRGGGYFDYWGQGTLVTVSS

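AAYL51 was designed without a model: most single CDR substitutions and a random sample of double and triple ones. Affinity was read by AlphaSeq, a pooled yeast mating assay with surface-displayed partners. Binding brings cells together so that they mate, and sequencing counts the barcode pairs among the diploids. Read counts were normalised to the haploid input and turned into Kd by a linear fit to BCL2-family pairs of known affinity, for each replicate. The assay was run in three technical replicates.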

Substitutions are numbered in sequence along the VH above, starting at 1 (not Kabat). Scale: log10 of Kd in nM, estimated from mating counts; low values are strong binders. Averages over replicates are reported, and they cover detected replicates only. Where no diploid with the target was found in that replicate, the entry reads "ND": below detection, most likely a poor binder, though not proof of it. Three control strains display no target. For library AAYL51, 21% of the pairings with them gave a signal, with a median of 4.54 and one signal in twenty below 3.26, so weak values seen in few replicates may be background.

changes,"log10 Kd, replicates","mean, log10 nM"
G26C/I58P/Y60N,ND / 3.67 / ND,3.67
V64R/V99P/R101S,ND / ND / ND,ND
G59Q/V64L/G103K,4.38 / ND / ND,4.38
I51P/N54Q/G103T,3.70 / ND / ND,3.70
T28H/G100K,ND / ND / ND,ND
A61C/K65A/G104K,4.70 / 5.07 / ND,4.89
H35I/A61E/R101G,ND / ND / ND,ND
F29T/R101C/F106L,ND / ND / ND,ND
G56S/A61H/Y105M,ND / ND / ND,ND
G56I/I58R/V64A,ND / ND / ND,ND
D31W/I51A/K65M,ND / ND / ND,ND
N54Q/K65Y/Y108G,3.65 / 5.15 / 3.22,4.00
T28H/S52D/I58V,2.35 / 2.59 / 1.54,2.16
H35W/G50H/S52G,ND / ND / ND,ND
F27A/T28R/G100V,ND / ND / ND,ND
D31W/D62M,2.99 / 3.07 / 2.76,2.94
G26N/W53R/R101V,3.82 / 4.12 / 2.77,3.57
D31G/S55H,ND / ND / ND,ND
D31C/I58E/Y105K,ND / ND / ND,ND
T28K/S55E/Y105A,0.72 / 0.75 / 0.14,0.54

Further variants, results first:

"log10 Kd, replicates","mean, log10 nM",changes
ND / ND / ND,ND,I58F/G100K/R101Y
3.75 / 5.02 / 3.80,4.19,F29D/I58E/G103R
4.44 / 5.57 / 5.29,5.10,G26T/G56L/Y60A
ND / ND / ND,ND,A33T/G104A
ND / ND / ND,ND,A33V/G50D/Y60V
2.29 / 2.26 / 2.15,2.23,D62L/K65Q/G102A
2.51 / 2.79 / 1.44,2.25,W53Y/G56I/D62Y
2.01 / 2.05 / 1.94,2.00,V64Y/K65Q
ND / ND / 4.69,4.69,Y60E/D62V/G103V
ND / 5.12 / 2.92,4.02,D31H/S55Q/F106K
3.33 / ND / ND,3.33,N54Y/Y60N/G100I
ND / ND / ND,ND,T28F/F29H/H35Y
3.78 / 3.80 / ND,3.79,H35A/V99I/G104E
4.99 / ND / ND,4.99,M34Y/S55K/K65R
1.74 / 2.05 / 1.50,1.76,S63C/R101A/G104W
ND / 4.42 / ND,4.42,D30T/G50Y/K65W
ND / ND / ND,ND,M34S/V64G/Y108E
4.24 / ND / ND,4.24,D30F/S55L/K65L
3.50 / ND / ND,3.50,H35C/R101Y/D107C
ND / ND / ND,ND,D31I/A33I/S55A

The 3 strongest on average among those seen in every replicate, once more:

| changes | log10 Kd, replicates | mean, log10 nM |
|---|---|---|
| T28K/S55E/Y105A | 0.72 / 0.75 / 0.14 | 0.54 |
| S63C/R101A/G104W | 1.74 / 2.05 / 1.50 | 1.76 |
| V64Y/K65Q | 2.01 / 2.05 / 1.94 | 2.00 |

Reference: Engelhart et al. 2022, doi:10.1038/s41597-022-01779-4. File: FLAb, binding data.